According to article PMC11395566, “Novel Copper (II) Complexes with Fluorine-Containing Reduced Schiff Base Ligands Showing Marked Cytotoxicity in the HepG2 Cancer Cell Line” (International Journal of Molecular Sciences, 2024):

Target: Jack bean urease (Canavalia ensiformis, UniProt P07374)
Details: read-out: Urease inhibition IC50 ± SD, 15 min pre-incubation

Row | Substance | IC50 [µM]
1 | Dichloro[(±)-trans-N,N′-bis-(3,5-bis-trifluoromethylbenzyl)-cyclohexane-1,2-diamine]copper (II) [Cu-L14] | 2.05 ± 0.34
2 | Dichloro[(±)-trans-N,N′-bis-(3,5-difluorobenzyl)-cyclohexane-1,2-diamine]copper (II) [Cu-L13] | 3.47 ± 0.88
3 | Dichloro[(±)-trans-N,N′-bis-(4-fluorobenzyl)-cyclohexane-1,2-diamine]copper (II) [Cu-L11] | 2.7 ± 1.09
4 | Dichloro[(±)-trans-N,N′-bis-(4-trifluoromethylbenzyl)-cyclohexane-1,2-diamine]copper (II) [Cu-L12] | 4.01 ± 0.84
